Each molecule was assayed on Dopamine D2 receptor (Rattus norvegicus) (assay: Effective dose required for DOPA accumulation (presynaptic dopaminergic effect) in rat).

How did the ED50 turn out when CCCCN1CCC[C@H](c2cccc(O)c2)C1 was run?
The ED50 was 9.2 µmol/kg.

Which ED50 does the source give for Oc1ccc2c(c1)C1CCCNC1CC2 (racemic; 18) here?
The ED50 was 25 µmol/kg.

How did the ED50 turn out when CCCN1CCCC2c3ccc(O)cc3CCC21 (racemic; 17) was run?
The ED50 was 0.54 µmol/kg.

For CN1CCCC2c3cccc(O)c3CCC21 (racemic), which ED50 is on record?
Its ED50 is 0.63 µmol/kg.

With CCN1CCCC2c3cccc(O)c3CCC21 (racemic) as the molecule, how does the ED50 read?
The ED50 was 0.17 µmol/kg.

How did the ED50 turn out when CCCN1CCC[C@H]2c3cccc(O)c3CC[C@@H]21 was run?
Its ED50 is 0.014 µmol/kg.

With CCCN1CCC[C@@H]2c3cccc(O)c3CC[C@@H]21 as the molecule, how does the ED50 read?
The ED50 was 0.32 µmol/kg.
